Experimental data taken from PubChem BioAssay AID624330 (Southern Research Specialized Biocontainment Screening …, 2012).
The other results are listed elsewhere or left out. Entries with a potency or affinity are not part of this list. Active and inactive are the calls of the source.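 Rule for the calls: active = first-screen hits whose inhibition reached a set limit at any dose in the follow-up dose series; inconclusive = inhibition above the set first-screen limit but never retested; inactive = the rest.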

Chains of the proteins cited; added tags and fusions are not shown. Lines headed by an entry give the natural chain unless they say otherwise; changes in a name come on top.
UniProt Q9H0H5: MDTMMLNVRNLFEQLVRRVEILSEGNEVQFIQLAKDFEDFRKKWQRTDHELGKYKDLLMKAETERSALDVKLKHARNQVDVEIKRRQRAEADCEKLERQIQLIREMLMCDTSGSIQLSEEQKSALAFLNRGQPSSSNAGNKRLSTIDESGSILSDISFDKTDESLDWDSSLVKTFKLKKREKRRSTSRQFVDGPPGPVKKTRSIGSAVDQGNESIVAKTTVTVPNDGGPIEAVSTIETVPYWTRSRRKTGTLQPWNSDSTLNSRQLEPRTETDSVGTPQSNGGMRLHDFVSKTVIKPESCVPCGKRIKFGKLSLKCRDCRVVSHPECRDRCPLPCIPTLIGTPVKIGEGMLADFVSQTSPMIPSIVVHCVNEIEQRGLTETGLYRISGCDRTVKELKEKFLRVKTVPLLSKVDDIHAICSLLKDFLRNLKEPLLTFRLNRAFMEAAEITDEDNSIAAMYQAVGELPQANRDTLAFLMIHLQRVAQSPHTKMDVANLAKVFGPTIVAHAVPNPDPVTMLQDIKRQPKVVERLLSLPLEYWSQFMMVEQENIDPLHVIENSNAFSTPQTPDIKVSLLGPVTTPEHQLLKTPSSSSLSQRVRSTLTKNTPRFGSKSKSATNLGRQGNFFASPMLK

Each compound was assayed against Rac GTPase-activating protein 1 (Homo sapiens) (UniProt Q9H0H5) (assay: blockers of MgcRacGAP-driven Rac1 GTP hydrolysis – biochemical, ADP Hunter fluorescence, primary and confirmatory, confirmation (AID 624330;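 note: fluorescence reports GDP produced by GAP-driven GTP hydrolysis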)). Conditions: MgcRacGAP-stimulated Rac1 GTP hydrolysis, at 30 µM, stronger effect = higher value, GST-tagged Rac1 F28L mutant substrate.

| SMILES | inhibition |
| --- | --- |
| CC1CCNP(=O)(N(CCCl)CCCl)O1 (stereo not drawn) | inactive: 0.47% |
| CCOC(=O)Nc1ccc([As](=O)(O)O)c(O)c1 | inactive: 0.96% |
| O=C(O)C(O)c1ccc(N(CCCl)CCCl)cc1 (stereo not drawn) | inactive: 6.67% |
| O=[N+]([O-])c1ccc(Nc2ccc(Oc3ccc([N+](=O)[O-])cc3[N+](=O)[O-])cc2)c([N+](=O)[O-])c1 | inactive: 6.5% |
| O=P(Nc1ccccn1)(c1cccc2ccccc12)c1cccc2ccccc12 | inactive: 4.7% |
| Cc1cc(SC(NC=O)C(Cl)(Cl)Cl)ncn1 (stereo not drawn) | inactive: 13.1% |
| CCOC(=O)Nc1cccc([As](=O)(O)O)c1 | inactive: 4.22% |
| O=C(COc1ccccc1)OC1CN2CCC1CC2 (stereo not drawn) | inactive: 2.76% |
| O=C(O)C(=O)c1ccc(N(CCCl)CCCl)cc1 | inactive: 2.77% |
| COP1(=S)c2c(C)nn(CCC#N)c2N=C(c2ccc(F)cc2)N1C (stereo not drawn) | inactive: 4.48% |
| CCC(C)N(CC(C)C)C(=S)SC(NC(C)=O)C(Cl)(Cl)Cl (stereo not drawn) | inactive: 3.31% |
| CCOC(=O)c1ccc(NC(=O)C(C)(CCl)SC)cc1 (stereo not drawn) | inactive: 8.05% |
| CSc1ccc(Nc2c([N+](=O)[O-])cc([N+](=O)[O-])cc2[N+](=O)[O-])cc1 | inactive: 0.26% |
| CC(C)(C)C(=O)NC(Sc1ncccn1)C(Cl)(Cl)Cl (stereo not drawn) | inactive: 11.6% |
| O=P1(N(CCCl)CCCl)NCCC(C(F)(F)F)O1 (stereo not drawn) | inactive: 5.57% |
| Clc1n[nH]nc1-c1nn[nH][15n]1 | inactive: 4.29% |
| CCOP(=O)(Nc1ccc(C)cn1)OCC | inactive: 2.53% |
| CCOP(=O)(NC(=NC(C)c1ccccc1)NC(C)c1ccccc1)OCC (stereo not drawn) | inactive: 2.61% |
| O=P1(Nc2ccccn2)COc2ccccc2OC1 | inactive: 6.29% |
| CCC1=CC2Cc3nc4ccc(Cl)cc4c(N)c3C(C1)C2 (stereo not drawn) | inactive: 8.95% |

| SMILES | inhibition |
| --- | --- |
| CC1(CBr)Cn2c(nc3ccccc3c2=O)S1 (stereo not drawn) | inactive: 15.1% |
| CC(C)/C=N\N=C(\N)N[N+](=O)[O-] | inactive: -8.4% |
| CN(C(=O)Cc1ccc(Cl)c(Cl)c1)[C@@H]1CCCC[C@H]1N1CCCC1 | inactive: 1.94% |
| COc1ccccc1CNC(=O)COC(=O)C(O)(c1ccccc1)c1ccccc1 | inactive: 9.86% |
| CCCC1OP(=O)(Nc2ccccc2)OCC1CC (stereo not drawn) | inactive: -1.2% |
| O=C(/C=C/c1ccccc1)OC1CN2CCC1CC2 (stereo not drawn) | inactive: 3.44% |
| CN(C)C1(CNC(=O)c2ccc(S(C)(=O)=O)cc2)CCCCC1 | inactive: -0.97% |
| CC1CCC(C(C)C)C(OP(=O)(Nc2ccccn2)c2ccccc2)C1 (stereo not drawn) | inactive: 1.85% |
| Cc1ccc(C(=O)OC2CN3CCC2CC3)cc1 (stereo not drawn) | inactive: 7.39% |
| Cc1nn(-c2ccccc2)c2c1P(=O)(N1CCOCC1)N(C)C(c1ccccc1)=N2 (stereo not drawn) | inactive: 7.75% |
| O=P1(Nc2ccc(Br)cn2)COc2ccccc2OC1 | inactive: 6.82% |
| NS(=O)(=O)c1cccc(NC(=O)COC(=O)C(O)(c2ccccc2)c2ccccc2)c1 | inactive: 2.07% |
| Cc1ccc(OCC(=O)OC2CN3CCC2CC3)cc1 (stereo not drawn) | inactive: 2.33% |
| O=[As](O)(c1cccs1)c1cccs1 | inactive: 3.92% |
| Nc1cccc([As](=O)(O)c2ccccc2)c1 | inactive: 0.99% |
| O=P1(Nc2ncccn2)COc2ccccc2OC1 | inactive: 5.16% |
| Nc1ccccc1[As](=O)(O)c1ccccc1 | inactive: 4.65% |
| O=C(O)COc1ccc([As](=O)(O)O)cc1[N+](=O)[O-] | inactive: 3.36% |
| O=P(Nc1nccs1)(Oc1ccccc1)Oc1ccccc1 | inactive: -15.4% |
| CCOP1(=S)c2c(C)nn(CCC#N)c2N=C(c2ccccc2F)N1C (stereo not drawn) | inactive: 18.1% |

| SMILES | inhibition |
| --- | --- |
| CN(C(=O)Cc1ccc(Cl)c(Cl)c1)[C@H]1CC[C@@]2(CCCO2)C[C@@H]1N1CCCC1 | inactive: 6.35% |
| CN(C)C(=O)c1cc([N+](=O)[O-])cc2c1-c1c(cc([N+](=O)[O-])cc1[N+](=O)[O-])C2=O | inactive: -2.29% |
| O=[N+]([O-])c1ccc2c(c1)nnn2O | inactive: 6.15% |
| CN(C(=O)Cc1ccccc1)[C@@H]1CC[C@]2(CCCO2)C[C@H]1N1CCCC1 | inactive: 4.56% |
| CCOP1(=S)c2c(C)nn(CCC#N)c2N=C(c2ccc(F)cc2)N1C (stereo not drawn) | inactive: -0.913% |
| N#CCCN(C(=O)COC(=O)C(O)(c1ccccc1)c1ccccc1)c1ccc(F)cc1 | inactive: 6.47% |
| NC(=O)Nc1ccc([As](=O)(O)O)cc1 | inactive: 11.9% |
| O=[As](O)(c1cccc(O)c1)c1cccc(O)c1 | inactive: 5.78% |
| Cc1cccc(OCC(=O)OC2CN3CCC2CC3)c1 (stereo not drawn) | inactive: 3.45% |
| CS(=O)(=O)c1ccc(Cl)c(NC(=O)COC(=O)C(O)(c2ccccc2)c2ccccc2)c1 | inactive: 4.26% |
| COc1cc(C(=O)NCC2(N3CCOCC3)CCCCC2)cc(Cl)c1OC(C)C | inactive: 11.9% |
| O=[As](O)(O)c1cccnc1 | inactive: 11.5% |
| O=C(OC1CN2CCC1CC2)c1ccc(Cl)cc1 (stereo not drawn) | inactive: 7.17% |
| CCOP(=O)(Nc1cccc2ccccc12)OCC | inactive: 6.84% |
| COc1cc(C2NCCC3(OCCO3)C2(C)C)cc(OC)c1OC (stereo not drawn) | inactive: -17.1% |
| CCCOP(=S)(Nc1nc(N)cc(=O)[nH]1)OCCC | inactive: 6.5% |
| Cc1ccc(NCCc2c([N+](=O)[O-])cc([N+](=O)[O-])cc2[N+](=O)[O-])cc1 | inactive: 1.21% |
| Nc1cccc2c([As](=O)(O)O)cccc12 | inactive: 14.1% |
